# Source: patent US7473681B2, “Kahalalide F” (Pharma Mar, S.A., priority 2000, dated 2009)
# Conditions: glass infusion containers, room temperature (+20-25° C., in the dark)
smiles,measurement,value
"C/C=C1\NC(=O)[C@H](Cc2ccccc2)NC(=O)[C@@H](C(C)C)NC(=O)[C@@H](C(C)CC)NC(=O)[C@H](NC(=O)C(NC(=O)[C@H](CCCN)NC(=O)[C@H]2CCCN2C(=O)[C@H](NC(=O)[C@@H](NC(=O)[C@@H](NC(=O)[C@H](NC(=O)CCCC(C)C)C(C)C)C(C)O)C(C)C)C(C)C)C(C)CC)C(C)OC(=O)[C@H](C(C)C)NC1=O (single isomer, unassigned) [Kahalalide F, kahalalide F]",stability of infusion solutions,at least 5 days
